{
  "sequences": {"note": "The chains behind the UniProt entries cited, without tags or fusion partners. Residues count along the entry.", "UniProt P48061, 22-93, species assumed": "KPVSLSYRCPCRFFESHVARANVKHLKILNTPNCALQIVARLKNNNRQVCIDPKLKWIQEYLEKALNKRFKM"},
  "source": "patent US12098175B2",
  "about": "“Peptide inhibitors targeting the CXCL12/HMGB1 interaction and uses thereof” (INSTITUTE FOR RESEARCH IN BIOMEDICINE, priority 2019, dated 2024)",
  "key": {"human monocytes": {"tested_on": "human monocytes", "assay": "Toxicity, AnnexinV-FITC/Propidium Iodide flow cytometry, human monocytes", "assay_type": "cell-based", "conditions": "100 μM, 2 h", "protocol": "(§1) In addition, toxicity of HBP08 was tested. Toxicity was assessed in the murine 300.19 PreB cell line expressing the human CXCR4, and on human monocytes. Cells were incubated for 2 h in the presence of HBP08 at 100 μM, stained by AnnexinVFITC/Propidium Iodide, and cell viability was analyzed by flow cytometry in comparison to the untreated control, following manufacturer's instructions."}, "CXCL12 [1]": {"molecular_target": "T1, CXCL12 (Homo sapiens, UniProt P48061)", "assay": "In vitro chemotaxis: migration induced by CXCL12 alone, primary human monocytes", "assay_type": "cell-based", "conditions": "peptide at 100 μM, CXCL12 1 nM", "protocol": "In a further experiment, CXCL12-induced cell migration was assessed, similar to Example 3, but using human monocytes as described above. Briefly, chemotaxis was performed using Boyden chambers with 5 μm pore membranes. Freshly isolated human monocytes were allowed to migrate for 90 min at 37° C. in response to a sub-optimal CXCL12 concentration (1 nM). 200 μM glycyrrhizin were used as positive control."}, "[2]": {"tested_on": "murine 300.19 PreB cell line expressing the human CXCR4", "assay": "Toxicity, AnnexinV-FITC/Propidium Iodide flow cytometry, 300.19 PreB cells", "assay_type": "cell-based", "conditions": "100 μM, 2 h; murine 300.19 PreB cells expressing human CXCR4", "protocol": "as §1"}, "CXCL12 [3]": {"molecular_target": "T1, CXCL12", "assay": "In vitro chemotaxis: migration induced by CXCL12 alone, 300.19 PreB cells expressing human CXCR4", "assay_type": "cell-based, murine", "conditions": "peptides at 100 μM; CXCL12 1 nM; 300.19 PreB cells with human CXCR4", "protocol": "Further experiments were performed with CXCL12 alone to identify peptides affecting cell migration induced by CXCL12 alone. To this end, experiments were performed in a similar manner as described in Example 2. Accordingly, murine 300.19 PreB cells stably transfected with human CXCR4 were used as described in Example 2.\nBriefly, chemotaxis was performed using Boyden chambers with 5 μm pore membranes. Murine 300.19 PreB cells stably transfected with the human CXCR4 were allowed to migrate for 90 min at 37° C. in response to a sub-optimal CXCL12 concentration (1 nM). 200 μM glycyrrhizin were used as positive control."}},
  "data": [
    {"smiles": "CC[C@H](C)[C@H](NC(=O)[C@H](Cc1c[nH]c2ccccc12)NC(=O)[C@H](CCCNC(=N)N)NC(=O)[C@H](CCC(=O)O)NC(=O)[C@H](Cc1ccc(O)cc1)NC(=O)[C@H](Cc1cnc[nH]1)NC(=O)[C@H](Cc1ccc(O)cc1)NC(=O)CN)C(=O)N[C@@H](Cc1cnc[nH]1)C(=O)O", "note": "[HBP08]", "values": [
      {"measurement": "Toxicity (cell viability)", "setting": "human monocytes", "result": "no toxicity"},
      {"measurement": "Effect on migration induced by CXCL12 alone", "setting": "CXCL12 [1]", "result": "without altering the migration induced by CXCL12 alone"},
      {"measurement": "Toxicity (cell viability)", "setting": "[2]", "result": "no toxicity"},
      {"measurement": "Effect on cell migration induced by CXCL12 alone", "setting": "CXCL12 [3]", "result": "do not affect CXCL12-induced cell migration"}
    ]}
  ]
}
